Sampled rows, rich in hits. Any-hit rate of the full collection: about 1.5%.
RAD54 inh = blocks human RAD54 Holliday junction branch migration | FAM/BHQ fluorescence | inhibition, % at 10.4 µM | Q92698 | hit rate 0.14% among 360,000;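 active = mean normalized replicate activity at least 40 and at least half of replicates scoring 40 or more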;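 note: inhibitors cause a drop in the FAM fluorescence signal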
CASP6 VEID inh = blocks human caspase-6 cleavage activity; P55212; purified caspase-6, Z-VEID-R110 cleavage fluorescence; inhibition, % at 12.5 µM; hit rate 0.53% among 350,000; AID 686996;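 active = mean inhibition across replicates at least about 35%, with every replicate also reaching that limit, limit read from the data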
RAD52 anneal inh = inhibitors of human RAD52 DNA annealing | recombinant RAD52 DNA annealing, FRET fluorescence | inhibition, % at 18.7 µM | hit rate 0.46% among 360,000 | AID 651710;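 active = every replicate showing at least 50% inhibition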
PglD inh = blocks C. jejuni PglD acetyltransferase activity; purified PglD enzyme, DTNB colorimetric CoA detection; AID 602405; hit rate 0.098% among 360,000; inhibition, % at 12.5 µM; in the data active = inhibition above about 16%, passing the limit was not always enough
INS-1E GSIS act = GLuc luminescence reporter in INS-1E cells, primary screen for activators of glucose-dependent secretion of insulin; INS-1E GLuc reporter insulin secretion, 2-3 h; hit rate 0.61% among 370,000; AID 743287; activation, % at 16.6 µM;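 active = lowest replicate activation of at least 40%, so every replicate reaches that level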
Yeast UUG start = modulators of start codon recognition fidelity in yeast. S. cerevisiae UUG-firefly luciferase reporter, luminescence/redox ratio. activity score, % at 18.7 µM. 350,000 tested, 0.13% active;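 active = replicate mean at a twofold rise or more, about +100% in these data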;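 note: firefly luciferase made from a UUG start codon reports start codon fidelity; reporter light over untreated wells divided by growth signal over untreated wells; some hits fall short of that in this replicate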
Of the large screens only hits and unclear results are named; the others gave an inactive call.

COc1cccc(/C=C2\SC(=S)N(CCCC(=O)Nc3ccc(C(=O)O)cc3)C2=O)c1	none
CCN1CCN(CCNC(=O)c2ccc3c(c2)N(Cc2ccc(F)cc2)C(=O)/C(=C/c2ccccc2)S3)CC1	RAD54 inh 66, RAD52 anneal inh 73, INS-1E GSIS act 102
COc1ccc(-n2c(SCC(=O)c3c(N)n(C)c(=O)n(C)c3=O)nc3ccccc32)cc1	none (no result: CASP6 VEID inh, RAD52 anneal inh, INS-1E GSIS act)
Cn1c(N)c(C(=O)CSc2nc3ccccc3n2-c2ccccc2)c(=O)n(C)c1=O	INS-1E GSIS act 63 (no result: CASP6 VEID inh, RAD52 anneal inh)
COc1nc(/C=C/N(C)C)c([N+](=O)[O-])c(OC)n1	none (no result: RAD54 inh, PglD inh, Yeast UUG start)
CCOc1ccc(CCNC(=O)COC(=O)c2cccnc2SC)cc1OCC	INS-1E GSIS act 55 (no result: RAD54 inh, PglD inh, Yeast UUG start)
CCOc1ccc(CCNC(=O)/C=C/c2ccco2)cc1OCC	none
CCOc1ccc(CCNC(=O)COC(=O)/C=C/c2ccco2)cc1OCC	INS-1E GSIS act 44
CCOc1ccc(CCNC(=O)COC(=O)c2ccc(C)s2)cc1OCC	INS-1E GSIS act 52
CCOc1ccc(CCNC(=O)Nc2ccccc2C)cc1OCC	none
CCOc1ccc(CCNC(=O)COC(=O)CSc2ccccc2C)cc1OCC	INS-1E GSIS act 57
Cc1cccc(-c2noc(CN(C)C(=O)c3ccco3)n2)c1	none
CSc1ncccc1C(=O)OCc1ccccc1	INS-1E GSIS act 47 (no result: CASP6 VEID inh, RAD52 anneal inh)
COc1ccc(CCNC(=O)COC(=O)c2ccc(C)s2)cc1OC	INS-1E GSIS act 42
CCOc1ccccc1C(=O)OCC(=O)NCc1ccc2c(c1)OCO2	INS-1E GSIS act 47
CCOc1ccc(CCNC(=O)COC(=O)c2ccc(Cl)nc2)cc1OCC	none
COc1ccc(CCNC(=O)COC(=O)c2ccc(C)s2)cc1	none
CSc1ncccc1C(=O)OCc1ccc([N+](=O)[O-])cc1	none
CCOc1ccc(CCNC(=O)COC(=O)c2nc(Cl)ccc2Cl)cc1OCC	INS-1E GSIS act 44
COc1ccc(/C=C/C(=O)Oc2ccc(/C=N/NC(=O)c3ccccc3)cc2)cc1OC	INS-1E GSIS act 129 (no result: CASP6 VEID inh, RAD52 anneal inh)
COc1cc(/C=N/NC(=O)CCOc2ccccc2C)cc(Br)c1O	none (no result: RAD54 inh, CASP6 VEID inh, PglD inh, Yeast UUG start)
COc1ccc(/C=N/NC(=O)Cn2cnc3ccccc3c2=O)cc1OC	INS-1E GSIS act 56 (no result: CASP6 VEID inh, RAD52 anneal inh)
COc1ccc(/C=N/NC(=O)CCOc2ccccc2C)cc1OC	INS-1E GSIS act 53 (no result: RAD54 inh, PglD inh, Yeast UUG start)
CCCCOC(=O)Nc1ccccc1C(=O)N1CCCC1	none (no result: RAD54 inh, CASP6 VEID inh, RAD52 anneal inh, PglD inh, Yeast UUG start)
O=C(NCc1ccccc1)/C(=C/c1ccco1)NC(=O)c1ccco1	none
CC(=O)N1CCN(C(=O)COC(=O)c2ccc(S(C)(=O)=O)cc2)CC1	INS-1E GSIS act 67
CC(C)CN1CCN(C(=O)COC(=O)c2ccc(S(C)(=O)=O)c([N+](=O)[O-])c2)CC1	INS-1E GSIS act 138
CCC(OC(=O)c1ccc(S(C)(=O)=O)c([N+](=O)[O-])c1)C(=O)NC1C2CC3CC(C2)CC1C3 (configuration not stated)	none
CS(=O)(=O)c1ccc(C(=O)OCC(=O)NC23CC4CC(CC(C4)C2)C3)cc1[N+](=O)[O-]	none (no result: RAD54 inh, PglD inh, Yeast UUG start)
CC(OC(=O)c1ccc(S(C)(=O)=O)c([N+](=O)[O-])c1)C(=O)NC1C2CC3CC(C2)CC1C3 (configuration not stated)	INS-1E GSIS act 143
NNC(=O)c1nc(-c2cccc(-n3cccc3)c2)no1	none (no result: RAD54 inh, PglD inh, Yeast UUG start)
CCCCN(C)C1=Nc2cccc3cccc1c23	none (no result: CASP6 VEID inh, RAD52 anneal inh, INS-1E GSIS act)
COc1cccc(C(=O)N2CCN(Cc3ccc(OC)cc3OC)CC2)c1	CASP6 VEID inh 42 (no result: INS-1E GSIS act)
C/C(O)=C/c1nc2ccccc2[nH]c1=O	none (no result: RAD54 inh, PglD inh, Yeast UUG start)
O=[N+]([O-])c1c(NCCCO)cc(Sc2nc3ccccc3s2)c2nonc12	INS-1E GSIS act 134
CCC(=O)OCCNc1cc(Sc2nc3ccccc3s2)c2nonc2c1[N+](=O)[O-]	none (no result: CASP6 VEID inh, RAD52 anneal inh)
Cc1nnc(Sc2cc(NCCCO)c([N+](=O)[O-])c3nonc23)s1	INS-1E GSIS act 75 (no result: RAD54 inh, PglD inh, Yeast UUG start)
Cc1cccc(C)c1OCc1cc(C(=O)NC2CCC(O)CC2)no1 (configuration not stated)	none
COc1ccc(C(=O)c2sc(Nc3ccccc3)nc2N)cc1OC	INS-1E GSIS act 43
COc1ccc(C(=O)c2sc(Nc3ccccc3)nc2N)cc1	none
Cc1ccc(C)c(OCC(=O)Nc2nonc2NC(=O)COc2cc(C)ccc2C)c1	INS-1E GSIS act 129 (no result: CASP6 VEID inh, RAD52 anneal inh)
c1coc(-c2nnc(NC3=NCCC3)o2)c1	none (no result: CASP6 VEID inh, RAD52 anneal inh, INS-1E GSIS act)
COCC(=O)N1[C@H](CO)[C@@H](c2ccccc2-c2ccccc2F)[C@@H]1C#N	none (no result: RAD54 inh, PglD inh, Yeast UUG start)
O=C1NC(Cc2ccc(O)cc2)c2nc3ccc(Br)cc3c(=O)n2-c2ncccc21 (configuration not stated)	CASP6 VEID inh 40 (no result: RAD54 inh, PglD inh, Yeast UUG start)
O=C1NC(Cc2ccc(O)cc2)c2nc3ccc(Br)cc3c(=O)n2-c2cc3ccccc3cc21 (configuration not stated)	none (no result: INS-1E GSIS act)
O=c1[nH]c2ccccc2nc1-c1nnnn1C1CCCC1	INS-1E GSIS act 49 (no result: RAD54 inh, PglD inh, Yeast UUG start)
O=c1[nH]c2cc3ccccc3cc2nc1-c1nnnn1C1CCCC1	none (no result: RAD54 inh, PglD inh, Yeast UUG start)
O=C1NCCC12C(=O)Nc1ccccc12 (configuration not stated)	none
O=C(O)C1=C2C(=O)Nc3cccc(c32)C2(C1)C(=O)Nc1ccccc12 (configuration not stated)	CASP6 VEID inh 60 (no result: INS-1E GSIS act)
CC1=CC(=O)C=C(C)C1=NOS(=O)(=O)c1ccccc1	INS-1E GSIS act 186 (no result: CASP6 VEID inh, RAD52 anneal inh)
c1ccc(Nc2nc(-c3ccccc3)nc3ccccc23)cc1	none
Fc1cccc(Nc2nc(-c3ccncc3)nc3ccccc23)c1	CASP6 VEID inh 53 (no result: INS-1E GSIS act)
CC[N+]1(C)CCC(O)(c2ccc(OC)cc2)C(C(=O)c2ccc(OC)cc2)C1 (configuration not stated)	INS-1E GSIS act 214 (no result: RAD54 inh, PglD inh, Yeast UUG start)
COc1ccc(-c2ccc(C(=O)C3CC3)cc2)cc1	none
Cc1ccc(/C=C2/C(=O)ON=C2c2ccccc2)o1	CASP6 VEID inh 60 (no result: RAD54 inh, PglD inh, Yeast UUG start)
O=C1ON=C(c2ccccc2)/C1=C\c1ccco1	CASP6 VEID inh 36 (no result: INS-1E GSIS act)
O=C1ON=C(c2ccccc2)/C1=C/c1ccccc1	none
Cc1c(OCC(=O)NCc2ccccn2)ccc2c3c(c(=O)oc12)CCCC3	INS-1E GSIS act 41
Cc1ccc(C(C)C)c(OCCCNCc2cccnc2)c1	none (no result: RAD54 inh, PglD inh, Yeast UUG start)
Cc1ccc(C(C)C)c(OCCNCCc2ccccc2)c1	INS-1E GSIS act 137
Cc1sc(NC(=O)CSc2n[nH]c(N)n2)c(C#N)c1C	CASP6 VEID inh 40
COC(=O)c1c(NC(=O)CSc2n[nH]c(N)n2)sc(C)c1C	none (no result: CASP6 VEID inh, RAD52 anneal inh)
O=C(Nc1cc2c3c(c1)C1CCCC1CN3CC1CCCC21)c1ccccc1 (configuration not stated)	RAD54 inh 50 (no result: CASP6 VEID inh, RAD52 anneal inh, INS-1E GSIS act)
CO[C@H]1CN(C)C(=O)c2ccc(NC(=O)Nc3ccc(Cl)c(Cl)c3)cc2OC[C@H](C)NC[C@@H]1C	RAD52 anneal inh 51
CO[C@@H]1CN(C)C(=O)c2ccc(NC(=O)Nc3cc(Cl)cc(Cl)c3)cc2OC[C@H](C)NC[C@@H]1C	RAD52 anneal inh 58 (no result: Yeast UUG start)
CO[C@H]1CN(C)C(=O)c2ccc(NC(=O)Nc3cc(Cl)cc(Cl)c3)cc2OC[C@H](C)NC[C@@H]1C	none (no result: RAD54 inh, PglD inh, Yeast UUG start)

Screening results deposited in PubChem by Broad Institute.
